Assay results reported in US9416129B2, “Tricyclic substituted thiadiazine dioxide compounds as BACE inhibitors, compositions and their use” (Merck Sharp & Dohme Corp., priority 2012, dated 2016).

Protein sequences, listed by entry. Tags and fused reporters are not part of them. Residues count along the entry.
UniProt P56817, 75-416 limits assumed: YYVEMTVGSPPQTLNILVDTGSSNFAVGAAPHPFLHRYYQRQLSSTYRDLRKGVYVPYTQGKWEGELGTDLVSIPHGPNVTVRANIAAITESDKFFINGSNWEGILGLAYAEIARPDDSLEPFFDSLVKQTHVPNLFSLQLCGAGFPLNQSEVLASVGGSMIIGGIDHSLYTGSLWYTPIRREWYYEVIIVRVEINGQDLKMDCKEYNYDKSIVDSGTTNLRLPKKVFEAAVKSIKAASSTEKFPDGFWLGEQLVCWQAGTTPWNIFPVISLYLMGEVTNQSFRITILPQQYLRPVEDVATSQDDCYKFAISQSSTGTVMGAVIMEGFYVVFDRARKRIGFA
UniProt Q9Y5Z0, 63-473 limits assumed: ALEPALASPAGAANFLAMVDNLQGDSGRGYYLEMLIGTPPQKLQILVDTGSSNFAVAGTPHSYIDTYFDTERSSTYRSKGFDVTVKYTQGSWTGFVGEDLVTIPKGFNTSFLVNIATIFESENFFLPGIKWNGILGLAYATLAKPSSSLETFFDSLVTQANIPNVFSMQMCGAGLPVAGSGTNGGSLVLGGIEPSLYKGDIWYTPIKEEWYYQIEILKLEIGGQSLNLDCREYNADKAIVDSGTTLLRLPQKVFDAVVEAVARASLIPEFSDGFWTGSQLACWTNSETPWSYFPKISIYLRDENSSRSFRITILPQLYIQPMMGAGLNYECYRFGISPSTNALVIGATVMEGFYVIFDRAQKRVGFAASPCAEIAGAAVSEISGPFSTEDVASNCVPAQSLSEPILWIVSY

Experiments:
[1] = biological target: soluble human BACE1 catalytic domain (Homo sapiens (Human), UniProt P56817); experiment: BACE1 HTRF FRET assay; conditions: read-out: BACE1 Ki; Ki calculated from IC50 using the Cheng-Prusoff equation
[2] = biological target: human autoBACE-2 (Homo sapiens (Human), UniProt Q9Y5Z0); experiment: BACE-2 assay (BACE-HTRF, time-resolved endpoint proteolysis); conditions: read-out: BACE2 Ki; Ki calculated from IC50 using the Cheng-Prusoff equation

SMILES	Ki [1] [nM]	Ki [2] [nM]
CN1C(=N)N[C@](C)(c2cc(-c3cccc(-c4ncco4)c3)ccc2F)CS1(=O)=O	1950	219
CN1C(=N)N[C@](C)(c2sc(-c3cncc(-c4nnco4)c3)cc2Cl)CS1(=O)=O	3.7	8.9
